Assay results: ChEMBL document CHEMBL2203183, “Synthesis of N-phenyl-N-(3-(piperidin-1-yl)propyl)benzofuran-2-carboxamides as new selective ligands for sigma receptors” (Bioorg Med Chem, 2012)

Tested on: PC-12
Assay: Selectivity ratio of Ki for sigma 2 receptor in rat PC12 cell membrane to Ki for sigma 1 receptor in rat brain membrane
Assay type: cell-based
Procedure, shortened: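 Sigma-1: rat brain membranes, 3 nM [3H]pentazocine, 37 °C, 2.5 h. Sigma-2: PC12 homogenate, 1 nM [3H]DTG, room temperature, 2 h. […] Filtration and scintillation counting; IC50 from logistic fit converted to Ki by Cheng-Prusoff. Ratio is sigma-2 Ki over sigma-1 Ki.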

`COc1cc2oc(C(=O)N(CCCN3CCCCC3)c3ccccc3)c(C)c2cc1OC` was tested, and the Ratio Ki was 19.
